Structures are written as SMILES. Where only a bound is given, the exact number is not on record here.

Amino acid sequences for entries named in this document (tags omitted). A change or cut given only in a name is not applied to a line headed by its entry. Chains listed by the source or under a name are the forms on record and can include a tag or linker. Residues count along the entry.
UniProt P04629, 510-781 limits assumed: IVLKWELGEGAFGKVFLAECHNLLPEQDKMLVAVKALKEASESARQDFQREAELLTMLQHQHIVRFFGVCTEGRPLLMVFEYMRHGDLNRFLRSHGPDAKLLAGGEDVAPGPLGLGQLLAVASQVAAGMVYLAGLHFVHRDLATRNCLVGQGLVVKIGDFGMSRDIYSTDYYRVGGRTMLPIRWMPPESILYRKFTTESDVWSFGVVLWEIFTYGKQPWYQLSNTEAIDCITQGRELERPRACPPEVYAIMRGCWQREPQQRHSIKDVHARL
UniProt P04629, 510-796 limits assumed: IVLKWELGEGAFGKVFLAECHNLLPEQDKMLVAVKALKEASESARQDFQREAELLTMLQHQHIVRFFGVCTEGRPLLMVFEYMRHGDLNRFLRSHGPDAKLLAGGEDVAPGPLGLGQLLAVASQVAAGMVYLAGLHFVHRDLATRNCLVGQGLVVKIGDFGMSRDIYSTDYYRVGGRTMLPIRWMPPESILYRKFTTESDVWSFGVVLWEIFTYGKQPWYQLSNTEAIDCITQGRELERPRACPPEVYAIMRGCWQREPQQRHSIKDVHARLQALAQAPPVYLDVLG
UniProt Q9UM73, 1116-1392 limits assumed: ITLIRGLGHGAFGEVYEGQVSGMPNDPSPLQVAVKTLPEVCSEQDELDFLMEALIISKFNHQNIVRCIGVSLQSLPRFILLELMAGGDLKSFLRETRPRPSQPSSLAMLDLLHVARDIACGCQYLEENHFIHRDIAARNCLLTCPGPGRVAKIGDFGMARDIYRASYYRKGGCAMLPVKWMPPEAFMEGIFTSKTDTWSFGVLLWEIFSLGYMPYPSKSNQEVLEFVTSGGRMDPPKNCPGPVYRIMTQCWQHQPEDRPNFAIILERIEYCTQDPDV
UniProt Q9UM73, 1116-1392 L1196M/G1202R limits assumed: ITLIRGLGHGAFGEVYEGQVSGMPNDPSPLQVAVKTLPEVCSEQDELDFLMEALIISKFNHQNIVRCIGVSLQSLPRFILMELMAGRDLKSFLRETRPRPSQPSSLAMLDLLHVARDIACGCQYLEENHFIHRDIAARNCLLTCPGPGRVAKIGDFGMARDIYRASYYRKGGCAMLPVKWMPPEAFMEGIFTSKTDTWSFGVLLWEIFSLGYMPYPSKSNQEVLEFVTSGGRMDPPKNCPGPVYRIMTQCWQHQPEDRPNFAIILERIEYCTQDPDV
UniProt Q9UM73, with tags, fused parts or gaps limits assumed: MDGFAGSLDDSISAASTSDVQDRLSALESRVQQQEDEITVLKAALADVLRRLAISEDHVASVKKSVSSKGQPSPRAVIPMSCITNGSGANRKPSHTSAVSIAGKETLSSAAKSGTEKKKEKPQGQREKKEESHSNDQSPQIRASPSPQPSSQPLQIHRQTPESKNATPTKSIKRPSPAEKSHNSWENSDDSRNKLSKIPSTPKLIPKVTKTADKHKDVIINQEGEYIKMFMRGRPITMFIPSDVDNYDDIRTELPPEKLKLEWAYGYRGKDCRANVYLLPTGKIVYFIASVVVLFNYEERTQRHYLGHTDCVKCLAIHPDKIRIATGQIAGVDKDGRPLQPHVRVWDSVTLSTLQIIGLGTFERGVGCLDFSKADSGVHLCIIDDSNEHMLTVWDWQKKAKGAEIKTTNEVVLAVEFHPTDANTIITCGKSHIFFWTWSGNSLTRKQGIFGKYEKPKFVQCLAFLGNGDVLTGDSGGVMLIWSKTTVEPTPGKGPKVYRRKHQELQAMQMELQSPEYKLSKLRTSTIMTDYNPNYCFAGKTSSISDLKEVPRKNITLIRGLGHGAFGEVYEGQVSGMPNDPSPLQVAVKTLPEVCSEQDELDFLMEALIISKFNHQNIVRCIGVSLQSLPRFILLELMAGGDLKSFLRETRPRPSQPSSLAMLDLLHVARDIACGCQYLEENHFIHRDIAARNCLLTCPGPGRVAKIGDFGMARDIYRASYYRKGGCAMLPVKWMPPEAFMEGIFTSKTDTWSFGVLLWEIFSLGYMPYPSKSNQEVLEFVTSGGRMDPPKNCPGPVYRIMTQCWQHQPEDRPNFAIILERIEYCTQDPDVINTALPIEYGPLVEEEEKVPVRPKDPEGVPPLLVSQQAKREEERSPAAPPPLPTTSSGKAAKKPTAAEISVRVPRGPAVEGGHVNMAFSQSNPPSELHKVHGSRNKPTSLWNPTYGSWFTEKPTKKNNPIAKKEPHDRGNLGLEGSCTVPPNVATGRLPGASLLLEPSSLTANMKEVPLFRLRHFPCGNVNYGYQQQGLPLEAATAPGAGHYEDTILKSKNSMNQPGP
UniProt Q9UM73, with tags, fused parts or gaps G1202R/L1196M limits assumed: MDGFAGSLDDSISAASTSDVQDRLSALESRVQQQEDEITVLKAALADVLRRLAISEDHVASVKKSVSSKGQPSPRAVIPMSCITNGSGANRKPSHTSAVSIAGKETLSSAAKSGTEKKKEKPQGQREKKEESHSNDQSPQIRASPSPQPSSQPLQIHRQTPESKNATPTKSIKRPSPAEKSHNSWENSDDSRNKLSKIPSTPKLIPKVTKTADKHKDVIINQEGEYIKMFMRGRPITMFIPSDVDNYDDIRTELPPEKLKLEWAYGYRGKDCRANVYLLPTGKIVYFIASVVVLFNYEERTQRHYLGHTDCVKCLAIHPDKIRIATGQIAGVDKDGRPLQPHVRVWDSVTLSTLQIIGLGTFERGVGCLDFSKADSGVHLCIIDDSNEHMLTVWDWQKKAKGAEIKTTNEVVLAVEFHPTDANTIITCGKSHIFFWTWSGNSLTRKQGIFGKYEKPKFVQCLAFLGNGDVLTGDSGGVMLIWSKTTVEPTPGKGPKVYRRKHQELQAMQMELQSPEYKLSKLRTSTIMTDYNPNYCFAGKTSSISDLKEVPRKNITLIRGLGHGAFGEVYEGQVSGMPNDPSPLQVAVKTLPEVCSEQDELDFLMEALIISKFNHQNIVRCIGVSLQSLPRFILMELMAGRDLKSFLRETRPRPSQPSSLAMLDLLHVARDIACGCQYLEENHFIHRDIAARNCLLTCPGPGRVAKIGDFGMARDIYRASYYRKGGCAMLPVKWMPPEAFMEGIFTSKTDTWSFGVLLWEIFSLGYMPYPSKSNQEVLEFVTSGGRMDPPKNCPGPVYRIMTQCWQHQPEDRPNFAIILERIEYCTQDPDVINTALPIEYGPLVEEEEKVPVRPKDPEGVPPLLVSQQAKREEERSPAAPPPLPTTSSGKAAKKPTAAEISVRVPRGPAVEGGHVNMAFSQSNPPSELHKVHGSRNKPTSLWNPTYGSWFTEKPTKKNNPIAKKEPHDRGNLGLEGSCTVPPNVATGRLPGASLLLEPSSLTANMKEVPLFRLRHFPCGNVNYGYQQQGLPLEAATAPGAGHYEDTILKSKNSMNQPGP
UniProt P08922, 1883-2347 limits assumed: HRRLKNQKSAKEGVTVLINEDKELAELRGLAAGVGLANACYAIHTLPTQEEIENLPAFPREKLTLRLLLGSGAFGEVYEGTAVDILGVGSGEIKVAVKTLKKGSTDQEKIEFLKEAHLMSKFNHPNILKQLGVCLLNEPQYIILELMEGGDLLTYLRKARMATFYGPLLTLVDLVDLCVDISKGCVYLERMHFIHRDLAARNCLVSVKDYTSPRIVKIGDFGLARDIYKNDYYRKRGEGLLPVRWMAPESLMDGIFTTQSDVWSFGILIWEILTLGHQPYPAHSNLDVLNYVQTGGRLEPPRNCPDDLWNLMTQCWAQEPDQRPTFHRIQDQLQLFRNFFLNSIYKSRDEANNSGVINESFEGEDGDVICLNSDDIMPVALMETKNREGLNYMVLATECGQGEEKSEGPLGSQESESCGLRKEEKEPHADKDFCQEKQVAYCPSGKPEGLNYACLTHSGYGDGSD
UniProt P08922, 1945-2222 limits assumed: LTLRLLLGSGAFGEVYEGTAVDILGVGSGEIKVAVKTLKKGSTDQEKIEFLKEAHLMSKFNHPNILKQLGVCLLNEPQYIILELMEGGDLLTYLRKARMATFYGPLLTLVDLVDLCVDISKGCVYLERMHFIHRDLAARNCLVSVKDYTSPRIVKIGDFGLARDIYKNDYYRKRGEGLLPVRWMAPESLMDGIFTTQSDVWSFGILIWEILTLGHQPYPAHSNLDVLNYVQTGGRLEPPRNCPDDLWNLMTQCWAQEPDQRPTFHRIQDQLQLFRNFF
UniProt P08922, 1883-2347 G2032R limits assumed: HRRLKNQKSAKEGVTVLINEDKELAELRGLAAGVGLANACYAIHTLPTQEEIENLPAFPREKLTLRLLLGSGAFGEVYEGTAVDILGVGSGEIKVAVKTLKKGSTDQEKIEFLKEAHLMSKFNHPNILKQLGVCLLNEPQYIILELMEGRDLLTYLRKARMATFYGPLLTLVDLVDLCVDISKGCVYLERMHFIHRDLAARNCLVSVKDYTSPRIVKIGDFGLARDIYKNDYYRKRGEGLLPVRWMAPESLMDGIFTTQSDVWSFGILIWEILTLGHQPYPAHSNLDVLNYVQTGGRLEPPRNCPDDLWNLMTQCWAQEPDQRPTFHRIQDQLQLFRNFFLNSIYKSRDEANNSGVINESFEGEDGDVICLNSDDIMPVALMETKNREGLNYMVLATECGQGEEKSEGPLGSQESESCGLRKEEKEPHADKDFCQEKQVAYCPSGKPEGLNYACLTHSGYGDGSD
UniProt P08922, 1945-2222 G2032R limits assumed: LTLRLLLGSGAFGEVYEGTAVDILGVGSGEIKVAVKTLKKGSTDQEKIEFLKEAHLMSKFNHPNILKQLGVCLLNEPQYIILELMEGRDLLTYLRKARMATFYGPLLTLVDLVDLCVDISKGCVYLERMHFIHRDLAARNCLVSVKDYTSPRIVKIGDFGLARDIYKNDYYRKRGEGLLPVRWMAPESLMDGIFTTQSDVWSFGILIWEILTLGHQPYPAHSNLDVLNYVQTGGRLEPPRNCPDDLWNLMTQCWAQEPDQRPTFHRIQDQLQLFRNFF

One assay has as its target Ba/F3 cells TPM3-TRKA (Homo sapiens, UniProt P04629). The assay is described as follows: Ba/F3 cell proliferation assay, TPM3-TRKA. Particulars: read-out: TPM3-NTRK1-wt IC50, 72 hours, CellTiter-Glo. For orientation: ATP-based viability assays read luminescence as a measure of living cells.
The next assay concerns the target ALK L1196M/G1202R (Homo sapiens, UniProt Q9UM73, G1202R/L1196M). Nature of the assay: Biochemical kinase assay, ALK L1196M/G1202R kinase domain. To be noted: read-out: ALK-L1196M-G1202R Ki^app; apparent inhibitory constant, Morrison equation; ATP 2 mM in substrate solution.
The next assay deals with ROS1-G2032R (Homo sapiens, UniProt P08922, G2032R). Nature of the assay: Biochemical kinase assay, ROS1-G2032R kinase domain. Particulars: read-out: ROS1-G2032R Ki^app; apparent inhibitory constant, Morrison equation; ATP 2 mM in substrate solution.
The target of the next assay is TRKA-wt (Homo sapiens, UniProt P04629). Nature of the assay: Biochemical kinase assay, TRKA-wt kinase domain. Particulars: read-out: TRKA-wt Ki^app; apparent inhibitory constant, Morrison equation; ATP 2 mM in substrate solution.
The next assay has as its target ALK-wt (Homo sapiens, UniProt Q9UM73). Nature of the assay: Biochemical kinase assay, ALK-wt kinase domain. To be noted: read-out: ALK-wt Ki^app; apparent inhibitory constant, Morrison equation; ATP 2 mM in substrate solution.
Assay [1] concerns the target Ba/F3 cells CD74-ROS1 wild-type (wt) (Homo sapiens, UniProt P08922). The assay is described as follows: Ba/F3 cell proliferation assay, CD74-ROS1 wild-type. The format is cell-based. To be noted: read-out: CD74-ROS1-wt IC50, 72 hours, CellTiter-Glo.
Assay [2] deals with Ba/F3 cells EML4-ALK L1196M/G1202R (variant 1) (Homo sapiens, UniProt Q9UM73, G1202R/L1196M). The assay is described as follows: Ba/F3 cell proliferation assay, EML4-ALK L1196M/G1202R (variant 1). To be noted: read-out: EML4-ALK-L1196M-G1202R IC50, 72 hours, CellTiter-Glo.
The target of assay [3] is Ba/F3 cells EML4-ALK wt (variant 1) (Homo sapiens, UniProt Q9UM73). Nature of the assay: Ba/F3 cell proliferation assay, EML4-ALK wt (variant 1). To be noted: read-out: EML4-ALK-wt IC50, 72 hours, CellTiter-Glo.
Assay [4] relates to TPM3-NTRK1-wt IC50 / primary target IC50 (e.g. CD74-ROS1-wt). The assay is described as follows: TRKA selectivity in Ba/F3 cells (TRKA potency divided by primary target potency).
For assay [5], the target named is Ba/F3 cells CD74-ROS1 G2032R (Homo sapiens, UniProt P08922, G2032R). The assay is described as follows: Ba/F3 cell proliferation assay, CD74-ROS1 G2032R. Format: cell-based. To be noted: read-out: CD74-ROS1-G2032R IC50, 72 hours, CellTiter-Glo.
For another assay, the target named is ROS1-wt (Homo sapiens, UniProt P08922). The assay is described as follows: Biochemical kinase assay, ROS1-wt kinase domain. Particulars: read-out: ROS1-wt Ki^app; apparent inhibitory constant, Morrison equation; ATP 2 mM in substrate solution.

Usually IC50 stands for the midpoint of a concentration-inhibition curve. Consider `CCn1ncc2c1-c1cnc(N)c(c1)O[C@H](C)c1cc(F)ccc1-c1cc(C(F)(F)F)nn1C2`, for which the half-maximal inhibitory concentration (IC50) fell in the range of 50 to 500 nM on Ba/F3 cells TPM3-TRKA; 0.1 to 50 nM in assay [1]; 50 to 500 nM in assay [2]; 0.1 to 50 nM in [3]; 0.1 to 50 nM in assay [5]. In addition, the Ki at ALK L1196M/G1202R, on ROS1-G2032R, at TRKA-wt, on ALK-wt and at ROS1-wt was < 50 nM in each case. Further, the TPM3-NTRK1-wt/CD74-ROS1-G2032R selectivity ratio result in [4] (TRKA potency / CD74-ROS1-G2032R potency) is “A (bin A for very high selectivity, ratio >30-fold)”. In addition, in assay [4] (TRKA potency / CD74-ROS1-wt potency), the TPM3-NTRK1-wt/CD74-ROS1-wt selectivity ratio entry was “A (bin A for very high selectivity, ratio >30-fold)”. For the same compound, the TPM3-NTRK1-wt/EML4-ALK-L1196M-G1202R selectivity ratio result in [4] (TRKA potency / EML4-ALK-L1196M-G1202R potency) was “D (bin D for low selectivity, ratio <1)”. For the same compound, the TPM3-NTRK1-wt/EML4-ALK-wt selectivity ratio result in [4] (TRKA potency / EML4-ALK-wt potency) is on record as “C (bin C for moderate selectivity, ratio ≥1)”.
